{"source": "paper PMC3017799", "about": "(Molecular Vision, 2011)", "proteins": {"B1": {"name": "wild-type αA-crystallin (natural protein, human, UniProt P02489 1-173, looked up)", "chain": "MDVTIQHPWFKRTLGPFYPSRLFDQFFGEGLFEYDLLPFLSSTISPYYRQSLFRTVLDSGISEVRSDRDKFVIFLDVKHFSPEDLTVKVQDDFVEIHGKHNERQDDHGYISREFHRRYRLPSNVDQSALSCSLSADGMLTFCGPKIQTGLDATHAERAIPVSREEKPTSAPSS", "notes": "human αA-crystallin, cDNA cloned into pET-23d(+); the protein was purified by gel filtration and ion exchange; It forms polydisperse oligomers and no subunit count is printed; also called wt αA-crystallin; source: E. coli BL21(DE3) pLysS, purified (Superdex 200 gel filtration, 6 M urea, anion exchange)"}}, "target": "the molecule itself", "experiment": "SEC; 100 ug protein at 1 mg/ml injected into a TSK-G5000PWXL column; 50 mM phosphate, 150 mM NaCl, pH 7.2"}
{"protein": "B1", "values": [{"measurement": "binding result", "result": "binds"}]}
